Literature values in US7923469B2, “Compositions including vitamin-based surfactants and methods for using same” (Allergen, Inc., priority 2001, dated 2011).

Settings: in water at 37° C.

For “D-alpha-tocopheryl polyethylene glycol 1000 succinate [Vitamin E TPGS]”, the “critical micelle concentration (CMC)” value is given as “about 0.02 w/v %”.
